# Laboratory results: patent US12240855B2, “Pyrrolopyrazole derivative” (DAIICHI SANKYO COMPANY, LIMITED, priority 2019, dated 2025)
# Tested on: PTDSS2 gene-disrupted (PTDSS2-KO) HCT116 cells
# Test: cells
# Conditions: Homo sapiens, HCT-116, 72 h, read-out: Test Example 3 PTDSS2-KO HCT116 GI50
row,SMILES,GI50 [nM]
1,"Cc1nc(C2c3c(-c4cccc5[nH]c(=O)oc45)n[nH]c3C(=O)N2CC(C)(F)F)ccc1F (single isomer, unassigned) [Example 23, 7-[5-(2,2-Difluoropropyl)-4-(5-fluoro-6-methylpyridin-2-yl)-6-oxo-1,4,5,6-tetrahydropyrrolo[3,4-c]pyrazol-3-yl]-1,3-benzoxazol-2(3H)-one (enantiomer)]",2100
2,"CC(F)(F)CN1C(=O)c2[nH]nc(-c3cccc4[nH]c(=O)oc34)c2C1c1cnc(C(F)(F)F)s1 (single isomer, unassigned) [Example 24, 7-{5-(2,2-Difluoropropyl)-6-oxo-4-[2-(trifluoromethyl)-1,3-thiazol-5-yl]-1,4,5,6-tetrahydropyrrolo[3,4-c]pyrazol-3-yl}-1,3-benzoxazol-2(3H)-one (enantiomer)]",2500
3,"CC(F)(F)CN1C(=O)c2[nH]nc(-c3cccc4[nH]c(=O)oc34)c2C1c1ccc(Oc2cc(C(F)(F)F)cc(C(F)(F)F)c2)cc1F (single isomer, unassigned) [Example 66, 7-[4-{4-[3,5-Bis(trifluoromethyl)phenoxy]-2-fluorophenyl}-5-(2,2-difluoropropyl)-6-oxo-1,4,5,6-tetrahydropyrrolo[3,4-c]pyrazol-3-yl]-1,3-benzoxazol-2(3H)-one (enantiomer)]",16
4,"CC(F)(F)CN1C(=O)c2[nH]nc(-c3cccc4[nH]c(=O)oc34)c2C1c1ccc(CN2CCC(F)(F)CC2)cc1 (single isomer, unassigned) [Example 83, 7-[4-{4-[(4,4-Difluoropiperidin-1-yl)methyl]phenyl}-5-(2,2-difluoropropyl)-6-oxo-1,4,5,6-tetrahydropyrrolo[3,4-c]pyrazol-3-yl]-1,3-benzoxazol-2(3H)-one (enantiomer)]",260
5,"O=C1c2[nH]nc(-c3cccc4[nH]c(=O)oc34)c2C(c2cccc(Oc3ccccc3)c2)N1Cc1ncco1 (stereo not shown) [Example 12, 7-{5-[(1,3-Oxazol-2-yl)methyl]-6-oxo-4-(3-phenoxyphenyl)-1,4,5,6-tetrahydropyrrolo[3,4-c]pyrazol-3-yl}-1,3-benzoxazol-2(3H)-one]",660
6,"O=C1c2[nH]nc(-c3cc(Oc4ccccc4)cc4[nH]c(=O)oc34)c2C(c2ccc(F)cc2)N1CC(F)(F)F (stereo not shown) [Example 15, 7-[4-(4-Fluorophenyl)-6-oxo-5-(2,2,2-trifluoroethyl)-1,4,5,6-tetrahydropyrrolo[3,4-c]pyrazol-3-yl]-5-phenoxy-1,3-benzoxazol-2(3H)-one]",14000
7,"CC(F)(F)CN1C(=O)c2[nH]nc(-c3cccc4[nH]c(=O)oc34)c2C1c1ccnc(Oc2ccccc2)c1 (stereo not shown) [Example 72, 7-[5-(2,2-Difluoropropyl)-6-oxo-4-(2-phenoxypyridin-4-yl)-1,4,5,6-tetrahydropyrrolo[3,4-c]pyrazol-3-yl]-1,3-benzoxazol-2(3H)-one]",280
8,"CC(F)(F)CN1C(=O)c2[nH]nc(-c3cccc4[nH]c(=O)oc34)c2C1c1ccc(Oc2ccc(Cl)cc2)cn1 (stereo not shown) [Example 77, 7-{4-[5-(4-Chlorophenoxy)pyridin-2-yl]-5-(2,2-difluoropropyl)-6-oxo-1,4,5,6-tetrahydropyrrolo[3,4-c]pyrazol-3-yl]-1,3-benzoxazol-2(3H)-one]",1000
9,"CC(F)(F)CN1C(=O)c2[nH]nc(-c3cccc4[nH]c(=O)oc34)c2C1c1cc(Oc2ccc(F)cc2)ccn1 (stereo not shown) [Example 78, 7-{5-(2,2-Difluoropropyl)-4-[4-(4-fluorophenoxy)pyridin-2-yl]-6-oxo-1,4,5,6-tetrahydropyrrolo[3,4-c]pyrazol-3-yl}-1,3-benzoxazol-2(3H)-one]",610
10,"CC(F)(F)CN1C(=O)c2[nH]nc(-c3cccc(NC(N)=O)c3)c2C1c1ccc(Cl)cc1 (stereo not shown) [Example 93, N-{3-[4-(4-Chlorophenyl)-5-(2,2-difluoropropyl)-6-oxo-1,4,5,6-tetrahydropyrrolo[3,4-c]pyrazol-3-yl]phenyl}urea]",7200
